Results as given in patent publication US20140100156A1 (SANOFI, priority 2012, published 2014).

Chains of the proteins cited; added tags and fusions are not shown. Residues count along the entry.
UniProt P47871, 26-477: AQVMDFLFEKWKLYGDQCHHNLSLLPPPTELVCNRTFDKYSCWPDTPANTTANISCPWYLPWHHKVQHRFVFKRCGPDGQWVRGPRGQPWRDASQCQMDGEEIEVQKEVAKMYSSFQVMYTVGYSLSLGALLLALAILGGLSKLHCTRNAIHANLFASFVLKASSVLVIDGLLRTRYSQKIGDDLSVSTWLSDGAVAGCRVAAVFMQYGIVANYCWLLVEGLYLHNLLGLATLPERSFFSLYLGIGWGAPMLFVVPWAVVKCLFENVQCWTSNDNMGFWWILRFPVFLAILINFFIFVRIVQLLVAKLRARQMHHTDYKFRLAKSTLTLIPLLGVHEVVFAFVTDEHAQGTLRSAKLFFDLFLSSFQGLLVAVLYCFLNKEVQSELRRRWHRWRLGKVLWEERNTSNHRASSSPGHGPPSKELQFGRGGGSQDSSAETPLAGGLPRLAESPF
UniProt P43220, 24-463: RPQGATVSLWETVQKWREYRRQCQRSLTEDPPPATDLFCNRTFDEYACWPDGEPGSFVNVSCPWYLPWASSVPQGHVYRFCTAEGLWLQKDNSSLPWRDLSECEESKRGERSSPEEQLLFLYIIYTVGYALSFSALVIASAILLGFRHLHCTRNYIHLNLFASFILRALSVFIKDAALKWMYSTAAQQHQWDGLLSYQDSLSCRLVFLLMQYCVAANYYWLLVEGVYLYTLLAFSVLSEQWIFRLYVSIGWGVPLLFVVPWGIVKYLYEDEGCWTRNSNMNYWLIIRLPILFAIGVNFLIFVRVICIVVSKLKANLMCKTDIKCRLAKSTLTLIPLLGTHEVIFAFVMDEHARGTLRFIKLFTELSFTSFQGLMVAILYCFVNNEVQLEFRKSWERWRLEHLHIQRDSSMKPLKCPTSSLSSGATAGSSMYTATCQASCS

How the values were obtained:
human glucagon receptor = target: T1, human glucagon receptor (Homo sapiens, UniProt P47871); test: cAMP response (HTRF) of HEK-293 cells stably expressing human glucagon receptor; format: cell-based
T1 construct: expressed in transfected cells; host or cells: HEK-293

human GLP-1 receptor = target: T2, human GLP-1 receptor (Homo sapiens, UniProt P43220); test: cAMP response (HTRF) of HEK-293 cells stably expressing human GLP-1 receptor; format: cell-based; settings: Table 5, cAMP, HEK-293
T2 construct: expressed in transfected cells; host or cells: HEK-293

[1] = Table 5, cAMP, HEK-293, read-out: EC50 hGlucagon-R

| SMILES | pEC50 (human glucagon receptor; [1]) | pEC50 (human GLP-1 receptor; read-out: EC50 hGLP-1R) | pEC50 (human glucagon receptor; EC50 hGlucagon-R, Table 5, cAMP, HEK-293) | pEC50 (human GLP-1 receptor; EC50 hGLP-1R) | pEC50 (human glucagon receptor; Table 8, comparison testing of position 14, read-out: EC50 hGlucagon-R) |
| --- | --- | --- | --- | --- | --- |
| CCCCCCCCCCCCCCCC(=O)N[C@@H](CCC(=O)NCCCC[C@H](NC(=O)[C@H](CO)NC(=O)[C@@H]1CCCN1C(=O)[C@@H]1CCCN1C(=O)[C@@H]1CCCN1C(=O)[C@H](C)NC(=O)CNC(=O)[C@H](CO)NC(=O)[C@H](CO)NC(=O)[C@@H]1CCCN1C(=O)CNC(=O)CNC(=O)[C@H](C)NC(=O)[C@H](CCCCN)NC(=O)[C@H](CC(C)C)NC(=O)[C@H](Cc1c[nH]c2ccccc12)NC(=O)[C@H](CCC(=O)O)NC(=O)[C@@H](NC(=O)[C@H](Cc1ccccc1)NC(=O)[C@H](CC(C)C)NC(=O)[C@H](CCC(N)=O)NC(=O)[C@H](C)NC(=O)[C@H](CCCNC(=N)N)NC(=O)[C@H](CCCNC(=N)N)NC(=O)[C@H](CO)NC(=O)[C@H](CCC(=O)O)NC(=O)[C@H](CCCCNC(=O)CC[C@H](NC(=O)CCCCCCCCCCCCCCC)C(=O)O)NC(=O)[C@H](CCC(N)=O)NC(=O)[C@H](CCCCN)NC(=O)[C@H](CO)NC(=O)[C@H](CC(C)C)NC(=O)[C@H](CC(=O)O)NC(=O)[C@H](CO)NC(=O)[C@@H](NC(=O)[C@H](Cc1ccccc1)NC(=O)[C@@H](NC(=O)CNC(=O)[C@H](CCC(N)=O)NC(=O)[C@@H](CO)NC(=O)[C@@H](N)Cc1c[nH]cn1)[C@@H](C)O)[C@@H](C)O)[C@@H](C)CC)C(N)=O)C(=O)O [compound 6] | 10.72 | 9.85 |  |  |  |
| CCCCCCCCCCCCCCCC(=O)NCCCC(=O)NCCCC[C@H](NC(=O)[C@H](CCC(N)=O)NC(=O)[C@H](CCCCN)NC(=O)[C@H](CO)NC(=O)[C@H](CC(C)C)NC(=O)[C@H](CC(=O)O)NC(=O)[C@H](CO)NC(=O)[C@@H](NC(=O)[C@H](Cc1ccccc1)NC(=O)[C@@H](NC(=O)CNC(=O)[C@H](CCC(N)=O)NC(=O)[C@@H](CO)NC(=O)[C@@H](N)Cc1c[nH]cn1)[C@@H](C)O)[C@@H](C)O)C(=O)N[C@@H](CCC(=O)O)C(=O)N[C@@H](CO)C(=O)N[C@@H](CCCCN)C(=O)N[C@@H](C)C(=O)N[C@@H](C)C(=O)N[C@@H](CCC(N)=O)C(=O)N[C@@H](CC(=O)O)C(=O)N[C@@H](Cc1ccccc1)C(=O)N[C@H](C(=O)N[C@@H](CCC(=O)O)C(=O)N[C@@H](Cc1c[nH]c2ccccc12)C(=O)N[C@@H](CC(C)C)C(=O)N[C@@H](CCCCN)C(=O)N[C@@H](C)C(=O)NCC(=O)NCC(=O)N1CCC[C@H]1C(=O)N[C@@H](CO)C(=O)N[C@@H](CO)C(=O)NCC(=O)N[C@@H](C)C(=O)N1CCC[C@H]1C(=O)N1CCC[C@H]1C(=O)N1CCC[C@H]1C(=O)N[C@@H](CO)C(N)=O)[C@@H](C)CC [compound 7] | 10.68 | 11.46 |  |  |  |
| CCCCCCCCCCCCOc1ccc(C(=O)N[C@@H](CCC(=O)NCCCC[C@H](NC(=O)[C@H](CCC(N)=O)NC(=O)[C@H](CCCCN)NC(=O)[C@H](CO)NC(=O)[C@H](CC(C)C)NC(=O)[C@H](CC(=O)O)NC(=O)[C@H](CO)NC(=O)[C@@H](NC(=O)[C@H](Cc2ccccc2)NC(=O)[C@@H](NC(=O)CNC(=O)[C@H](CCC(N)=O)NC(=O)[C@@H](CO)NC(=O)[C@@H](N)Cc2c[nH]cn2)[C@@H](C)O)[C@@H](C)O)C(=O)N[C@@H](CCC(=O)O)C(=O)N[C@@H](CO)C(=O)N[C@@H](CCCNC(=N)N)C(=O)N[C@@H](C)C(=O)N[C@@H](C)C(=O)N[C@@H](CCC(N)=O)C(=O)N[C@@H](CC(=O)O)C(=O)N[C@@H](Cc2ccccc2)C(=O)N[C@H](C(=O)N[C@@H](CCC(=O)O)C(=O)N[C@@H](Cc2c[nH]c3ccccc23)C(=O)N[C@@H](CC(C)C)C(=O)N[C@@H](CCCCN)C(=O)N[C@@H](C)C(=O)NCC(=O)NCC(=O)N2CCC[C@H]2C(=O)N[C@@H](CO)C(=O)N[C@@H](CO)C(=O)NCC(=O)N[C@@H](C)C(=O)N2CCC[C@H]2C(=O)N2CCC[C@H]2C(=O)N2CCC[C@H]2C(=O)N[C@@H](CO)C(N)=O)[C@@H](C)CC)C(=O)O)cc1 [compound 9] |  |  | 11.39 | 11.66 |  |
| CCCCCCCCCCCCCCCC(=O)N[C@@H](CCC(=O)NCCCC[C@H](NC(=O)[C@H](CCC(N)=O)NC(=O)[C@H](CCCCN)NC(=O)[C@H](CO)NC(=O)[C@H](CC(C)C)NC(=O)[C@H](CC(=O)O)NC(=O)[C@H](CO)NC(=O)[C@@H](NC(=O)[C@H](Cc1ccccc1)NC(=O)[C@@H](NC(=O)CNC(=O)[C@H](CCC(N)=O)NC(=O)[C@@H](CO)NC(=O)[C@@H](N)Cc1c[nH]cn1)[C@@H](C)O)[C@@H](C)O)C(=O)N[C@@H](CC(=O)O)C(=O)N[C@@H](CO)C(=O)N[C@@H](CCCNC(=N)N)C(=O)N[C@@H](CCCNC(=N)N)C(=O)N[C@@H](C)C(=O)N[C@@H](CCC(N)=O)C(=O)N[C@@H](CC(=O)O)C(=O)N[C@@H](Cc1ccccc1)C(=O)N[C@H](C(=O)N[C@@H](CCC(=O)O)C(=O)N[C@@H](Cc1c[nH]c2ccccc12)C(=O)N[C@@H](CC(C)C)C(=O)N[C@@H](CCCCN)C(=O)N[C@@H](CC(N)=O)C(=O)NCC(=O)NCC(=O)N1CCC[C@H]1C(=O)N[C@@H](CO)C(=O)N[C@@H](CO)C(=O)NCC(=O)N[C@@H](C)C(=O)N1CCC[C@H]1C(=O)N1CCC[C@H]1C(=O)N1CCC[C@H]1C(=O)N[C@@H](CO)C(=O)NCCC)[C@@H](C)CC)C(=O)O [compound 10] | 11.77 | 11.04 |  |  |  |
| CCCCCCCCCCCCCCCCCC(=O)N[C@@H](CCC(=O)NCCCC[C@H](NC(=O)[C@H](CCC(N)=O)NC(=O)[C@H](CCCCN)NC(=O)[C@H](CO)NC(=O)[C@H](CC(C)C)NC(=O)[C@H](CC(=O)O)NC(=O)[C@H](CO)NC(=O)[C@@H](NC(=O)[C@H](Cc1ccccc1)NC(=O)[C@@H](NC(=O)CNC(=O)[C@H](CCC(N)=O)NC(=O)[C@@H](CO)NC(=O)[C@@H](N)Cc1c[nH]cn1)[C@@H](C)O)[C@@H](C)O)C(=O)N[C@@H](CCC(=O)O)C(=O)N[C@@H](CO)C(=O)NC(C)(C)C(=O)N[C@@H](C)C(=O)N[C@@H](C)C(=O)N[C@@H](CCC(N)=O)C(=O)N[C@@H](CC(=O)O)C(=O)N[C@@H](Cc1ccccc1)C(=O)N[C@H](C(=O)N[C@@H](CCC(=O)O)C(=O)N[C@@H](Cc1c[nH]c2ccccc12)C(=O)N[C@@H](CC(C)C)C(=O)N[C@@H](CCCCN)C(=O)N[C@@H](C)C(=O)NCC(=O)NCC(=O)N1CCC[C@H]1C(=O)N[C@@H](CO)C(=O)N[C@@H](CO)C(=O)NCC(=O)N[C@@H](C)C(=O)N1CCC[C@H]1C(=O)N1CCC[C@H]1C(=O)N1CCC[C@H]1C(=O)N[C@@H](CO)C(N)=O)[C@@H](C)CC)C(=O)O [compound 11] | 10.59 | 11.44 |  |  |  |
| CCCCCCCCCCCCCCCC(=O)N[C@@H](CCC(=O)NCCCC[C@H](NC(=O)[C@H](CCC(N)=O)NC(=O)[C@H](CCCCN)NC(=O)[C@H](CO)NC(=O)[C@H](CC(C)C)NC(=O)[C@H](CC(=O)O)NC(=O)[C@H](CO)NC(=O)[C@@H](NC(=O)[C@H](Cc1ccccc1)NC(=O)[C@@H](NC(=O)CNC(=O)[C@H](CCC(N)=O)NC(=O)[C@@H](CO)NC(=O)[C@@H](N)Cc1c[nH]cn1)[C@@H](C)O)[C@@H](C)O)C(=O)N[C@@H](CCC(=O)O)C(=O)N[C@@H](CO)C(=O)NC(C)(C)C(=O)N[C@@H](C)C(=O)N[C@@H](C)C(=O)NC(C)(C)C(=O)N[C@@H](CC(C)C)C(=O)N[C@@H](Cc1ccccc1)C(=O)N[C@H](C(=O)N[C@@H](CCC(=O)O)C(=O)N[C@@H](Cc1c[nH]c2ccccc12)C(=O)N[C@@H](CC(C)C)C(=O)N[C@@H](CCCCN)C(=O)N[C@@H](C)C(=O)NCC(=O)NCC(=O)N1CCC[C@H]1C(=O)N[C@@H](CO)C(=O)N[C@@H](CO)C(=O)NCC(=O)N[C@@H](C)C(=O)N1CCC[C@H]1C(=O)N1CCC[C@H]1C(=O)N1CCC[C@H]1C(=O)N[C@@H](CO)C(N)=O)[C@@H](C)CC)C(=O)O [compound 12] | 9.58 | 11.34 |  |  |  |
| CCCCCCCCCCCCCCCCCC(=O)N[C@@H](CCC(=O)NCCCC[C@H](NC(=O)[C@H](CCC(N)=O)NC(=O)[C@H](CCCCN)NC(=O)[C@H](CO)NC(=O)[C@H](CC(C)C)NC(=O)[C@H](CC(=O)O)NC(=O)[C@H](CO)NC(=O)[C@@H](NC(=O)[C@H](Cc1ccccc1)NC(=O)[C@@H](NC(=O)CNC(=O)[C@H](CCC(N)=O)NC(=O)[C@@H](CO)NC(=O)[C@@H](N)Cc1c[nH]cn1)[C@@H](C)O)[C@@H](C)O)C(=O)N[C@@H](CCC(=O)O)C(=O)N[C@@H](CO)C(=O)N[C@@H](CCCCN)C(=O)N[C@@H](C)C(=O)N[C@@H](C)C(=O)N[C@@H](CCC(N)=O)C(=O)N[C@@H](CC(C)C)C(=O)N[C@@H](Cc1ccccc1)C(=O)N[C@H](C(=O)N[C@@H](CCC(=O)O)C(=O)N[C@@H](Cc1c[nH]c2ccccc12)C(=O)N[C@@H](CC(C)C)C(=O)N[C@@H](CCCCN)C(=O)N[C@@H](C)C(=O)NCC(=O)NCC(=O)N1CCC[C@H]1C(=O)N[C@@H](CO)C(=O)N[C@@H](CO)C(=O)NCC(=O)N[C@@H](C)C(=O)N1CCC[C@H]1C(=O)N1CCC[C@H]1C(=O)N1CCC[C@H]1C(=O)N[C@@H](CO)C(N)=O)[C@@H](C)CC)C(=O)O [compound 27] | 10.60 |  |  |  |  |
| CC[C@H](C)[C@H](NC(=O)[C@H](Cc1ccccc1)NC(=O)[C@H](CC(C)C)NC(=O)[C@H](CCCNC(=N)N)NC(=O)[C@H](C)NC(=O)[C@H](C)NC(=O)[C@H](CCC(=O)O)NC(=O)[C@H](CCC(=O)O)NC(=O)[C@H](CCC(=O)O)NC(=O)[C@H](CC(C)C)NC(=O)[C@H](CCC(N)=O)NC(=O)[C@H](CCCCN)NC(=O)[C@H](CO)NC(=O)[C@H](CC(C)C)NC(=O)[C@H](CC(=O)O)NC(=O)[C@H](CO)NC(=O)[C@@H](NC(=O)[C@H](Cc1ccccc1)NC(=O)[C@@H](NC(=O)CNC(=O)[C@H](CCC(N)=O)NC(=O)C(C)(C)NC(=O)[C@@H](N)Cc1c[nH]cn1)[C@@H](C)O)[C@@H](C)O)C(=O)N[C@@H](CCC(=O)O)C(=O)N[C@@H](Cc1c[nH]c2ccccc12)C(=O)N[C@@H](CC(C)C)C(=O)N[C@@H](CCCCN)C(=O)N[C@@H](C)C(=O)NCC(=O)NCC(=O)N1CCC[C@H]1C(=O)N[C@@H](CO)C(=O)N[C@@H](CO)C(=O)NCC(=O)N[C@@H](C)C(=O)N1CCC[C@H]1C(=O)N1CCC[C@H]1C(=O)N1CCC[C@H]1C(=O)N[C@@H](CO)C(N)=O [compound 225] |  |  |  |  | 8.54 |

pEC50: −log10 of the molar value. Read-outs that look alike come from different tables or passages of the source.
